Values of other authors, collected in patent US5508310A, “Immunopotentiatory agents and physiologically acceptable salts thereof” (Burroughs Wellcome Co., priority 1992, dated 1996).

Tested on: Pneumocystis carinii
Conditions: AIDS patients; Wofsy 1986; cited from earlier work

trimethoprim-sulphamethoxazole
Incidence of adverse reactions: around 50%
